The chains behind the UniProt entries cited, without tags or fusion partners.
UniProt O43614, whole entry: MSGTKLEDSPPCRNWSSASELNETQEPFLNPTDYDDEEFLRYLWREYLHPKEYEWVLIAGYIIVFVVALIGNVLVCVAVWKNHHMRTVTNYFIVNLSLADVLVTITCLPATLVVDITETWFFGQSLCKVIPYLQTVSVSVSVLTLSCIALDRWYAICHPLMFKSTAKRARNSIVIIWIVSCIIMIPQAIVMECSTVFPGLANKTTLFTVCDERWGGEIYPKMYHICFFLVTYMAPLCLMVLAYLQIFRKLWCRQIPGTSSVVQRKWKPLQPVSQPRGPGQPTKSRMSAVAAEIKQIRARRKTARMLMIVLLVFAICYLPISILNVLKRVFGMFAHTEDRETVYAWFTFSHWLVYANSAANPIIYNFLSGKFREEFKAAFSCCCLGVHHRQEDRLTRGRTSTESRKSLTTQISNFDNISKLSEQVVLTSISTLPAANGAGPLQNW

According to patent US9611262B2, “Substituted 2-azabicycles and their use as orexin receptor modulators” (JANSSEN PHARMACEUTICA NV, priority 2014, dated 2017):

Each compound was assayed against human orexin 2 receptor (Homo sapiens (Human), UniProt O43614) (assay: Human orexin 2 receptor radioligand binding ([3H]-EMPA competition)). Details: HEK293 stably expressing human orexin 2 receptor; 2 nM [3H]-EMPA; averages of 2-20 runs; read-out: hOX2 Ki.
Experimental: The in vitro affinity of the compounds of the invention for the rat/human orexin 1 and human orexin 2 receptors was determined by competitive radioligand binding using [^3H](1-(5-(2-fluoro-phenyl)-2-methyl-thiazol-4-yl)-1-((S)-2-(5-phenyl-(1,3,4)oxadiazol-2-ylmethyl)-pyrrolidin-1-yl)-methanone) (Langmead et al., 2004) and [^3H]EMPA (n-ethyl-2[96-methoxy-pyridin-3-yl)-(toluene-2-sulfonyl)-amino]-N-pyridin-3-ylmethyl acetamide), respectively (Langmead et al., 2004, British Journal of Pharmacology 141:340-346; Malherbe et al., 2004, British Journal of Pharmacology 156:1326-41).
Data are analyzed using pc-Sandy macro and graphed on Graphpad Prism 5. For analysis, each concentration point is averaged from triplicate values and the averaged values are plotted on Graphpad Prism. The IC50 was determined by applying the following equation (GraphPad Prism 5.0, San Diego) for one site competition where X=log (concentration) and Y=specific binding. Top denotes the total [^3H]— (1-(5-(2-fluoro-phenyl)-2-methyl-thiazol-4-yl)-1-((S)-2-(5-phenyl-(1,3,4)oxadiazol-2-ylmethyl)-pyrrolidin-1-yl)-methanone) binding, bottom denotes the nonspecific [^3H]— (1-(5-(2-fluoro-phenyl)-2-methyl-thiazol-4-yl)-1-((S)-2-(5-phenyl-(1,3,4)oxadiazol-2-ylmethyl)-pyrrolidin-1-yl)-methanone) binding. Graphpad Prism calculates Ki value from IC50 and the pre-determined Kd values for [^3H]— (1-(5-(2-fluoro-phenyl)-2-methyl-thiazol-4-yl)-1-((S)-2-(5-phenyl-(1,3,4)oxadiazol-2-ylmethyl)-pyrrolidin-1-yl)-methanone) and [^3H]-EMPA. The Ki for each compound is then uploaded into 3DX. Each run comprises individual compounds in triplicate. The data in Table 1 and Table 2 represent averages from between 2-20 runs
Human Orexin 2 Receptor Radioligand Binding Studies
HEK293 stably expressing human orexin 2 receptor (Genebank accession number NM_001526) were grown to confluency in DMEM (Hyclone, cat # SH30022), 10% FBS, 1× Pen/Strep, 1× NaPyruvate, 10 mM HEPES, 600 μg/ml G418 media on 150 cm^2 tissue culture plates, washed with 5 mM EDTA in PBS (HyClone Dulbecco's Phosphate Buffered Saline 1× with Calcium and Magnesium, Cat # SH30264.01, hereafter referred to simply as PBS) and scraped into 50 ml tubes. After centrifugation (2K×G, 5 min at 4° C.), the supernatant was aspirated and the pellets frozen and stored at −80° C. Cells were resuspended in PBS in the presence of 1 tablet of protease inhibitor cocktail (Roche, Cat. #11836145001) per 50 mL. […] Compounds were solubilized in 100% DMSO (Acros Organics, Cat. #61042-1000) and tested over a range of 7 concentration (from 0.1 nM to 10 μM). The final concentration of DMSO in the reactions is equal to or less than 0.1%. Total and nonspecific binding was determined in the absence and presence of 10 μM almorexant. The total volume of each reaction is 200 μL (20 μL of diluted compounds, 80 μL of [^3H]-EMPA diluted in PBS and 100 μL of the cell suspension). Reactions were run for 60 min at room temperature and terminated by filtration through GF/C filter plates (PerkinElmer, Cat. #6005174) presoaked in 0.3% polyethylenimine using the cell harvester (PerkinElmer Filtermate). The plates were washed 3 times by aspirating 30 ml PBS through the plates. Plates were dried in 55° C. oven for 60 min, scintillation fluid was added, and the radioactivity was counted on a Topcount (Packard).

Ki [nM] | SMILES
423 | C[C@@H]1[C@H]2C[C@@H](Oc3ccc(Cl)cn3)[C@H](C2)N1C(=O)c1ccccc1-n1nccn1 [Example 121, [(1R,2R,4S,5R)-5-[(5-chloro-2-pyridyl)oxy]-2-methyl-3-azabicyclo[2.2.1]heptan-3-yl]-[2-(triazol-2-yl)phenyl]methanone]
1200 | CC1C2CC(Oc3ccc(C(F)(F)F)cn3)C(C2)N1C(=O)c1ccccc1-c1ncccn1 (racemic) [Example 15, (R/S)-(3-methyl-6-((5-(trifluoromethyl)pyridin-2-yl)oxy)-2-azabicyclo[2.2.1]heptan-2-yl)(2-(pyrimidin-2-yl)phenyl)methanone]
1500 | Cc1cnc(C(=O)N2[C@H](C)[C@H]3C[C@@H](Oc4ccc(C(F)(F)F)cn4)[C@@H]2C3)c(-n2nccn2)c1 (relative stereo) [Example 24, (5-methyl-3-(2H-1,2,3-triazol-2-yl)pyridin-2-yl)((1S*,3R*,4R*,6R*)-3-methyl-6-((5-(trifluoromethyl)pyridin-2-yl)oxy)-2-azabicyclo[2.2.1]heptan-2-yl)methanone]
518 | CC1C2CC(Oc3ccc(C(F)(F)F)cn3)C(C2)N1C(=O)c1ccccc1-n1nccn1 (single isomer, unassigned) [Example 21B, (2-(2H-1,2,3-triazol-2-yl)phenyl)((1S*,3R*,4R*,6R*)-3-methyl-6-((5-(trifluoromethyl)pyridin-2-yl)oxy)-2-azabicyclo[2.2.1]heptan-2-yl)methanone]
> 10000 | Cc1ccc(-c2ncccn2)c(C(=O)N2C(C)C3CC(Oc4ccc(C(F)(F)F)cn4)C2C3)n1 (single isomer, unassigned) [Example 16A, (6-methyl-3-(pyrimidin-2-yl)pyridin-2-yl)((1R*,3S*,4S*,6S*)-3-methyl-6-((5-(trifluoromethyl)pyridin-2-yl)oxy)-2-azabicyclo[2.2.1]heptan-2-yl)methanone]
> 10000 | CC1C2CC(Oc3ccc(C(F)(F)F)cn3)C(C2)N1C(=O)c1ccccc1-n1nccn1 (single isomer, unassigned) [Example 21A, (2-(2H-1,2,3-triazol-2-yl)phenyl)((1R*,3S*,4S*,6S*)-3-methyl-6-((5-(trifluoromethyl)pyridin-2-yl)oxy)-2-azabicyclo[2.2.1]heptan-2-yl)methanone]
668 | CC1C2CC(Oc3ccc(C(F)(F)F)cn3)C(C2)N1C(=O)c1ccccc1-n1nccn1 (single isomer, unassigned) [Example 2, (R/S)-(2-(2H-1,2,3-triazol-2-yl)phenyl)(3-methyl-6-((5-(trifluoromethyl)pyridin-2-yl)oxy)-2-azabicyclo[2.2.1]heptan-2-yl)methanone]
> 10000 | Cc1ccc(-n2nccn2)c(C(=O)N2C(C)C3CC(Oc4ccc(C(F)(F)F)cn4)C2C3)n1 (single isomer, unassigned) [Example 22A, (6-methyl-3-(2H-1,2,3-triazol-2-yl)pyridin-2-yl)((1R*,3S*,4S*,6S*)-3-methyl-6-((5-(trifluoromethyl)pyridin-2-yl)oxy)-2-azabicyclo[2.2.1]heptan-2-yl)methanone]
691 | [2H]C1([2H])[C@H]2C[C@@H]([C@@H]1Oc1ccc(C(F)(F)F)cn1)N(C(=O)c1ccccc1-n1nccn1)[C@@H]2C [Example 201, [(1R,3R,4S,6R)-2,2-dideuterio-6-methyl-3-[[5-(trifluoromethyl)-2-pyridyl]oxy]-5-azabicyclo[2.2.1]heptan-5-yl]-[2-(triazol-2-yl)phenyl]methanone]
1100 | CC1C2CC(Oc3ccc(C(F)(F)F)cn3)C(C2)N1C(=O)c1ccc(F)cc1-c1ncccn1 (racemic) [Example 17, (R/S)-(4-fluoro-2-(pyrimidin-2-yl)phenyl)(−3-methyl-6-((5-(trifluoromethyl)pyridin-2-yl)oxy)-2-azabicyclo[2.2.1]heptan-2-yl)methanone]
975 | CC1C2CC(Oc3ccc(C(F)(F)F)cn3)C(C2)N1C(=O)c1ccccc1-n1nccn1 (single isomer, unassigned) [Example 2B, (2-(2H-1,2,3-triazol-2-yl)phenyl)((1S*,3S*,4R*,6R*)-3-methyl-6-((5-(trifluoromethyl)pyridin-2-yl)oxy)-2-azabicyclo[2.2.1]heptan-2-yl)methanone]
> 10000 | Cc1ccc(-n2nccn2)c(C(=O)N2C(C)C3CC(Oc4ccc(C(F)(F)F)cn4)C2C3)n1 (single isomer, unassigned) [Example 3B, (6-methyl-3-(2H-1,2,3-triazol-2-yl)pyridin-2-yl)((1S*,3S*,4R*,6R*)-3-methyl-6-((5-(trifluoromethyl)pyridin-2-yl)oxy)-2-azabicyclo[2.2.1]heptan-2-yl)methanone]
> 10000 | CC1C2CC(Oc3ccc(C(F)(F)F)cn3)C(C2)N1C(=O)c1ccccc1-n1nccn1 (single isomer, unassigned) [Example 2A, (2-(2H-1,2,3-triazol-2-yl)phenyl)((1R*,3R*,4S*,6S*)-3-methyl-6-((5-(trifluoromethyl)pyridin-2-yl)oxy)-2-azabicyclo[2.2.1]heptan-2-yl)methanone]
619 | CC1C2CC(Oc3ccc(C(F)(F)F)cn3)C(C2)N1C(=O)c1ccccc1-n1nccn1 (single isomer, unassigned) [Example 21, (R/S)-(2-(2H-1,2,3-triazol-2-yl)phenyl)(3-methyl-6-((5-(trifluoromethyl)pyridin-2-yl)oxy)-2-azabicyclo[2.2.1]heptan-2-yl)methanone]
> 10000 | Cc1ccc(C(=O)N2C(C)C3CC(Oc4ccc(C(F)(F)F)cn4)C2C3)c(-n2nccn2)n1 (racemic) [Example 10, (R/S)-(6-methyl-2-(2H-1,2,3-triazol-2-yl)pyridin-3-yl)(3-methyl-6-((5-(trifluoromethyl)pyridin-2-yl)oxy)-2-azabicyclo[2.2.1]heptan-2-yl)methanone]
> 10000 | CC1C2CC(Oc3ccc(C(F)(F)F)cn3)C(C2)N1C(=O)c1ccccc1-c1ncc(F)cn1 (single isomer, unassigned) [Example 19A, (2-(5-fluoropyrimidin-2-yl)phenyl)((1R*,3S*,4S*,6S*)-3-methyl-6-((5-(trifluoromethyl)pyridin-2-yl)oxy)-2-azabicyclo[2.2.1]heptan-2-yl)methanone]
